# Experimental data taken from ChEMBL document CHEMBL1131860.
# Sequences of proteins named here, by UniProt entry; tags and fusion partners are left off.
# UniProt P97266, whole entry: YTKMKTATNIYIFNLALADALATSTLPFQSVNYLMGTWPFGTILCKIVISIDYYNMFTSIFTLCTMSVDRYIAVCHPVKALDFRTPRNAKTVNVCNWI
# UniProt P41144, whole entry: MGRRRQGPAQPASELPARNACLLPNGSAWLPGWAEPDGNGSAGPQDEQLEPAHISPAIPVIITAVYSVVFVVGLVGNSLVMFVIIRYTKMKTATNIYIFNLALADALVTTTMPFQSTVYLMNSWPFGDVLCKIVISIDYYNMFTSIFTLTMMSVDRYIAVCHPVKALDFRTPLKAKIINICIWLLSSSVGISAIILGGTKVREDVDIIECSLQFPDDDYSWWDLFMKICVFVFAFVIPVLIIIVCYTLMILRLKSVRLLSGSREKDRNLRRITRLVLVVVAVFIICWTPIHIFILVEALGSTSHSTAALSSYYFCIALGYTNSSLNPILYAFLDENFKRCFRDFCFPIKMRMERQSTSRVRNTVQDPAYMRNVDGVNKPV
# What was measured:
# [1] = target: Mu-type opioid receptor (Cavia porcellus) (UniProt P97266); assay: [35S]GTP-gamma-S, induced maximal stimulation ( E max ) against Mu opioid receptor in guinea pig caudate membranes blocked with 6000 nM CTAP
# [2] = target: Kappa-type opioid receptor (Cavia porcellus) (UniProt P41144); assay: [35S]GTP-gamma-S, induced maximal stimulation ( E max )against Kappa opioid receptor in guinea pig caudate membranes blocked with 6 nM nor-BNI
# [3] = target: Mu-type opioid receptor (Cavia porcellus) (UniProt P97266); assay: [35S]GTP-gamma-S, induced maximal stimulation ( E max )against Mu opioid receptor in guinea pig caudate membranes in unblocked condition
# [4] = target: Opioid receptors; mu & delta (Homo sapiens) (UniProt P41143+P35372); assay: Ratio of binding affinities (Mu/Delta)
Compound,Emax [1],Emax [2],Emax [3],Ratio [4]
C=CCN1CC[C@H](N(c2ccccc2)c2ccc(C(=O)N(CC)CC)cc2)C(C)C1 (stereo not given in full),55,60,63,
C=CCN1CC[C@H](N(c2ccccc2)c2ccc(C(=O)N(CC)CC)cc2)[C@H](C)C1,,,,102
C=CCN1CC[C@H](N(c2ccccc2)c2ccc(C(=O)N(CC)CC)cc2)[C@@H](C)C1,,,,13
